# Measured values from US12472201B2, “Complexing agent salt formulations of pharmaceutical compounds” (Bexson Biomedical, Inc., priority 2020, dated 2025).
# Assay: Final pH and average osmolality of API Captisol formulations and API salt solutions
# Conditions: Captisol-API HCl salt formulation (70 mg/mL API HCl salt in FB equiv, 1.1 molar equiv Captisol in CapAcid equiv)
compound,measurement,value
"CNC1(c2ccccc2F)CCCCC1=O (stereo not shown) [Example 2-F-DCK, 2-(2-fluorophenyl)-2-(methylamino)cyclohexan-1-one]",pH,6.93
